## Measured boiling point values of organic chemicals

The boiling point refers to atmospheric pressure (760 mmHg), by the definition of the set. The databases behind each value are named after "via".

bp (°C),compound,via
64.5,CCCC(F)(F)C(F)(F)C(F)(F)F,ChemicalBook
195,CC(OCCCl)OCCCl,OCHEM
340,CC(O)CN(CCCN(CCCN(C)C)CCCN(C)C)CC(C)O (stereo unspecified),eChemPortal
220,O=C1CC(C(=O)O)CC(=O)C1=C(O)C1CC1 (stereo unspecified),OCHEM
81,O=C(Br)C(F)(F)C(F)(F)C(F)(F)C(F)(F)F,ChemicalBook
258,CC(C)CC(=O)O[C@H]1C[C@H]2CC[C@]1(C)C2(C)C,OCHEM
314,COCc1c(F)c(F)c(COC(=O)C2C(C)(C)C2(C)C)c(F)c1F,OCHEM
176,O=CCC(F)(F)C(F)(F)C(F)(F)C(F)(F)C(F)(F)C(F)(F)C(F)(F)C(F)(F)F,OCHEM
101.5,FC(F)(F)C(F)(F)C1CCCCC1,ChemicalBook
118,O=S(=O)(Sc1ccccc1)c1ccc(Cl)cc1,OCHEM
170,O=C(Cl)C(F)(F)C(F)(F)C(F)(F)C(F)(F)C(F)(F)C(F)(F)C(F)(F)C(F)(F)C(F)(F)F,ChemicalBook
91,O=CC(F)(F)C(F)(F)C(F)(F)C(F)(F)C(F)(F)C(F)(F)F,OCHEM
69.5,FC(=CC(F)(F)C(F)(F)C(F)(F)F)C(F)(F)C(F)(F)F,ChemicalBook
216,Cc1ccc(C(C)C)cc1Cl,OCHEM
107,NCC(F)(F)C(F)(F)C(F)(F)C(F)(F)C(F)(F)F,ChemicalBook
380,CC(=O)Oc1c(C)c(C)nc2c(F)cc(C(C)(C)C)cc12,OCHEM
138,CCCN(CC)CCC,OCHEM
146,C1=CC=CCCC=C1,OCHEM
334,CCCCCCC(c1ccccc1)c1ccccc1,OCHEM
189,Clc1cccc2cnsc12,OCHEM
115,CCCC[Si](C)(C)C,OCHEM
245.6,CC(C)P(=O)(CCCCCCCCCCCCP(=O)(C(C)C)C(C)C)C(C)C,eChemPortal
59,CC1CCO1 (stereo unspecified),OCHEM
403,Cc1ccsc1C1=NOC(C)(COCc2c(F)cccc2F)C1 (stereo unspecified),OCHEM
285,C/C(C=O)=C\c1ccc(CC(C)C)cc1,eChemPortal
100,C[Si](C)(C)C(F)(F)C(F)(F)C(F)(F)C(F)(F)F,ChemicalBook
196,O=S(=O)(O)C(F)(F)C(F)(F)C(F)(F)F,"ChemicalBook, OCHEM"
54,O=S(=O)(F)OC(F)(F)C(F)(F)Cl,ChemicalBook
184,CCOC(C)OC(C)C#CC1(O)C=C(C)CCC1C(C)C (stereo unspecified),eChemPortal
99,FC(F)(Cl)C(F)(Cl)I (stereo unspecified),OCHEM
77.5,CC(C)(C)OCl,OCHEM
433.2,CC(C)(C)c1cc(C(C)(C)c2ccc(O)c(C(C)(C)C)c2)ccc1O,OFMPub
285.4,Fc1ccc2c(c1)CC[C@@H]([C@H]1CO1)O2 (racemic),eChemPortal
223,CC(=CC(C)C)C(C)OC(C)(C)CO (stereo unspecified),eChemPortal
127,CC(C)(O)C(F)(F)C(F)C(F)(F)F (stereo unspecified),ChemicalBook
317,O=C(/C=C/c1ccco1)c1ccccc1,OCHEM
216,CC(C)(C)C(O)=NC1CCCCC1I (stereo unspecified),eChemPortal
262,Cc1cc(CC(C)C)ccc1C=O,eChemPortal
335,CC(C)=CCC/C(C)=C/CC/C(C)=C/CC/C=C(\C)CC/C=C(\C)CCC=C(C)C,eChemPortal
163,CC(C)C(Br)C(=O)O[C@H]1C[C@H]2CC[C@]1(C)C2(C)C (stereo partly drawn),OCHEM
132,O=CC(F)(F)C(F)(F)C(F)(F)C(F)(F)C(F)(F)C(F)(F)C(F)(F)C(F)(F)C(F)(F)C(F)(F)F,OCHEM
88.5,C#CC/C=C/C,OCHEM
265.4,O=C1CCC(C(=O)O)N1 (stereo unspecified),eChemPortal
360,Nc1cc(S(=O)(=O)O)ccc1C(=O)O,eChemPortal
136,CCOC(C)C#N (stereo unspecified),OCHEM
278,CN(c1ccccc1)C(C)(C)C,OCHEM
264.2,CCCCCCCCC1CC2C=CC1C2 (stereo unspecified),eChemPortal
326.8,CCN(C(=O)N(CC)c1ccccc1)c1ccccc1,"PubChem, eChemPortal"
91,FC(F)=C(F)C(F)(F)C(F)(Cl)C(F)(F)Cl (stereo unspecified),ChemicalBook
164,CC(=O)/C(C)=C/C(C)C,eChemPortal
15.15,CC(F)(F)C(F)(F)C(F)(F)F,ChemicalBook
277,CC(=O)CCC1C(C)=CCCC1(C)C (stereo unspecified),eChemPortal

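The OPERA project collected these measurements from public sources as training and test data for property models. The files give a single number for a compound and property, which may rest on several reports. Method and conditions are not stated for these values. Where a salt, mixture or single isomer is drawn, the source does not say that exactly this form was tested. Some entries may be limits or estimates that an upstream database listed as plain numbers.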

From the experimental data distributed with OPERA 2.9.